Results on one compound are retold here after ChEMBL document CHEMBL3352520, “CoMFA and CoMSIA analysis of ACE-inhibitory, antimicrobial and bitter-tasting peptides” (Eur J Med Chem, 2014).

Amino acid sequences for entries named in this document (tags omitted).
UniProt P12821, whole entry: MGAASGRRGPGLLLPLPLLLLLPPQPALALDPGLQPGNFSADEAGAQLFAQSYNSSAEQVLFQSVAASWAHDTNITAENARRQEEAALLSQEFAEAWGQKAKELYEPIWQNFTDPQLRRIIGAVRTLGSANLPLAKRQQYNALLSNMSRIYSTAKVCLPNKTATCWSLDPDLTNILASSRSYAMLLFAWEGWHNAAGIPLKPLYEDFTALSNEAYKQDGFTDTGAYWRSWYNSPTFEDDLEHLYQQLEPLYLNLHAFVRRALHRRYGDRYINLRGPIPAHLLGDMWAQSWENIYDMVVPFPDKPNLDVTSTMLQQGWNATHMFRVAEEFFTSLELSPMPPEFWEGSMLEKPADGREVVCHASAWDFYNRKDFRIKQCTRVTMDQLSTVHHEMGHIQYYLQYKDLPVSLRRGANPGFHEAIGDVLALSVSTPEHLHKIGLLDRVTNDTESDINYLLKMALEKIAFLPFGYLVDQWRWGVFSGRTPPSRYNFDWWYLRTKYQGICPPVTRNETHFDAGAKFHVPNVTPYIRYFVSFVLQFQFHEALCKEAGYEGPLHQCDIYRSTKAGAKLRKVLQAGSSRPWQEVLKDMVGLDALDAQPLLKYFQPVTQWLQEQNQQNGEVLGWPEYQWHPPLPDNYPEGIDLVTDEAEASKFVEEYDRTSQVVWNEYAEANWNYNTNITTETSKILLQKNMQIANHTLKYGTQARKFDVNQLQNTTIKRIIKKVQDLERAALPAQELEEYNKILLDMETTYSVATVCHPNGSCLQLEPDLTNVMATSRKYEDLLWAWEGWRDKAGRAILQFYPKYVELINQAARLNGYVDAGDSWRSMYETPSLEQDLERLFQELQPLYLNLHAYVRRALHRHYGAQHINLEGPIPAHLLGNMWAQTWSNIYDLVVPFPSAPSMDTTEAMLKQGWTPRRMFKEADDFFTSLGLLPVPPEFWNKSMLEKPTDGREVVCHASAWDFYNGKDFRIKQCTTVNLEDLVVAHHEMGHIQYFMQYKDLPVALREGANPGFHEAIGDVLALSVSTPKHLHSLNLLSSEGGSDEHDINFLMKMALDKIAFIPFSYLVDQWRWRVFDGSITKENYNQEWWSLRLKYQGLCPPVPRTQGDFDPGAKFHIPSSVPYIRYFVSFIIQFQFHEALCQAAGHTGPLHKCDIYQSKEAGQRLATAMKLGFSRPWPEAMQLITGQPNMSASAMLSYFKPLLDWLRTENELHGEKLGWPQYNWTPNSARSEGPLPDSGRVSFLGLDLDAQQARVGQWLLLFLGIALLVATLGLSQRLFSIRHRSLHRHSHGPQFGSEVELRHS

For the assay, the target named is Angiotensin-converting enzyme (Homo sapiens) (UniProt P12821). Put plainly: Inhibition of ACE (unknown origin). Set-up: unit not given here.

The compound `CC(C)C[C@H](NC(=O)[C@@H]1CCCN1C(=O)[C@H](CC(C)C)NC(=O)[C@@H](N)Cc1cnc[nH]1)C(=O)N1CCC[C@H]1C(=O)O` showed a logIC50 of 1.61.
